Reference: patent US20250129135A1, “Multi-Agonist and Use Thereof” (priority 2021, published 2025)
Where two headings read alike, the source gives them in different places.

Protein sequences, listed by entry. Tags and fused reporters are not part of them. Residues count along the entry.
UniProt P47871, 26-477: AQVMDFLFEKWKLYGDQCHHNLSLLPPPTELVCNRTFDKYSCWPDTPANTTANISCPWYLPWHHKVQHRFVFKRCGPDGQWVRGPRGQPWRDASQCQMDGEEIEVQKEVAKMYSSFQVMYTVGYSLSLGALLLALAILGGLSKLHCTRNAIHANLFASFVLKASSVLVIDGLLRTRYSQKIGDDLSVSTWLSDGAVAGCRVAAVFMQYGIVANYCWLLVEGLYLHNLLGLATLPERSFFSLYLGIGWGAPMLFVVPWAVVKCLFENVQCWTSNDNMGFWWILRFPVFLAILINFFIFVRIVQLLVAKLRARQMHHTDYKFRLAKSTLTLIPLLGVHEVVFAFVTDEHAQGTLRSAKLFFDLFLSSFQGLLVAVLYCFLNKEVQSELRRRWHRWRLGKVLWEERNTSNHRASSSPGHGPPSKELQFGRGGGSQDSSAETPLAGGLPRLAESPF
UniProt P43220, 24-463: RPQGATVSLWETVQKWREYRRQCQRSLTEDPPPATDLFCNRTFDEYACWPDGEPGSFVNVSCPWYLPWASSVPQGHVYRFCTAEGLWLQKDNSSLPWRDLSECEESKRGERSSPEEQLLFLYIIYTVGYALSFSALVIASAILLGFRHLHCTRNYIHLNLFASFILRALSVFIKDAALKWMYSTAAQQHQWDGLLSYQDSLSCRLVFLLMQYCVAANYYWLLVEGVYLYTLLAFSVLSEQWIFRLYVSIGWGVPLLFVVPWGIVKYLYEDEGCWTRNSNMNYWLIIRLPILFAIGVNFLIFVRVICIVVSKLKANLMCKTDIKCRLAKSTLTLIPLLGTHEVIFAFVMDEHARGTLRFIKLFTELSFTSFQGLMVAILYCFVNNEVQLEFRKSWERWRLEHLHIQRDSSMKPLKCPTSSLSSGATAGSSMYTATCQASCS

How the values were obtained:
Human GIP R = target: T1, Human GIP R (Homo sapiens, UniProt P48546); experiment: cAMP (HTRF) activity in CHO cells stably overexpressing GIP receptor; assay type: cell-based
T1 construct: expressed in transfected cells; host or cells: CHO
T1 sequence (P48546 22-466): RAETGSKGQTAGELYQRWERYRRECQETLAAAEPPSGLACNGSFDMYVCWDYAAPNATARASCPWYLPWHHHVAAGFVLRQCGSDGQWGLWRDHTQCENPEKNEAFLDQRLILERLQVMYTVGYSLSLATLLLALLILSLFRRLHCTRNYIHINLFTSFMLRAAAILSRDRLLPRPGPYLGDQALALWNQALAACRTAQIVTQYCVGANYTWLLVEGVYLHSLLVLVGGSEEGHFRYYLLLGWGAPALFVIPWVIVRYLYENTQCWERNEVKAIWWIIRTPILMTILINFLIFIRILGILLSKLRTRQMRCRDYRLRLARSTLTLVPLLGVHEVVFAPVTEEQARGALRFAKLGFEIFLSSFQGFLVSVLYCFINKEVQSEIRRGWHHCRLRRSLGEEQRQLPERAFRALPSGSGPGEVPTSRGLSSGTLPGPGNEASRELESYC
In short: (§1)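 Cells resuspended in HBSS are incubated with compound for 60 min at room temperature, then with HTRF cAMP detection reagent for a further 60 min. Concentration-response fits give agonist EC50 values in nM.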

Human GCG R = target: T2, Human GCG R (Homo sapiens, UniProt P47871); experiment: cAMP (HTRF) activity in HEK-293 cells stably overexpressing human GCG receptor; assay type: cell-based
T2 construct: expressed in transfected cells; host or cells: HEK-293
In short: as §1

RIN-m5F cells = assay type: cell-based, rat
In short: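 cAMP production measured in RIN-m5F cells resuspended in HBSS; compounds incubated 60 min at room temperature, then detection reagent added for a further 60 min before read-out.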

3T3-L1 adipocytes = conditions: for Rel. A (Relative Activity) on 3T3-L1 adipocyte: relative to GIP
In short: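 Mouse 3T3-L1 preadipocytes were differentiated with IBMX, dexamethasone and insulin for 5 days, then insulin plus 10 uM rosiglitazone for 3 days, then 10% FBS medium for 2–3 days. Mature adipocytes received 10-point, 3-fold compound dilutions for 60 min at room temperature. cAMP was read by kit detection reagent after a further 60 min, with concentration-effect curves fitted.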

[1] = test system: human primary liver cells; assay type: cell-based; conditions: for Rel. A (Relative Activity) on human primary liver cells: relative to GCG
In short: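 Human primary hepatocytes, thawed at 37° C and resuspended in HBSS, exposed to compound for 60 min at room temperature. Detection reagent then added for 60 min before cAMP readout.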

C57 BL/6J DIO mice = experiment: In vivo pharmacodynamics in high-fat diet induced obesity (DIO) mice; parameters: species or system mouse; conditions: Mean±SEM; for Weight change: Table 6-1; for LDL-C / TC (total cholesterol) / TG (plasma triglycerides): Table 7-1
Source text: High-fat diet induced obesity (DIO) mice have characteristics such as obesity, elevated blood sugar, insulin resistance, and lipid abnormalities, all of which are very significant metabolic syndromes similar to a human body. The effects of the compounds of the present application on body weight, food intake, blood sugar, and lipids in C57 BL/6J DIO mice were studied.
Obesity was induced in mice by feeding with a high-fat diet (60 kcal % of calories from fat). […] After grouping, one animal was raised in each cage for one week, during which each of the animals was injected subcutaneously (S.C.) with a solvent (1×PBS, 5 ml/kg) to pre-adapt the experimental operation process.
After the preparation of animals, vehicle control or compounds were administered to groups of animals by subcutaneous injection, in which the compounds were dissolved in 1×PBS, the dosage was 5 ml/kg, and the administration operation was started at 9:00 am and conducted once every three days (Q3D) for 15 days. Throughout the entire experimental study, animal weight and food intake were measured daily before administration, and compared with initial weight and food intake of the same animal before administration to calculate a percentage change in animal weight (%) and cumulative food intake, so as to evaluate the impact of compounds on changes in body weight and food intake.
At the end point of the experiment (Day 15), the body weight of the mice was measured, and then fasting blood glucose was measured by taking blood from the tail tip of broken tail without anesthesia. After the blood collection, the animals were anesthetized with CO2 and euthanized. Then, blood was taken from the heart and plasma was separated by centrifugation. The plasma was used to measure total cholesterol (TC), low-density lipoprotein cholesterol (LDL-C), triglycerides (TG), and blood insulin content. The liver was separated for homogenization, and then centrifuged to obtain the supernatant for determining triglyceride content in the liver.
All results were expressed in Mean±SEM, and the results were analyzed by one-way ANOVA using GraphPad Prism 5 software, followed by Dunnett's post hoc test compared to the Vehicle control group. The difference at the p<0.05 level was considered statistically significant.

Human GLP-1R = Human GLP-1R (Homo sapiens, UniProt P43220); experiment: cAMP (HTRF) activity in HEK-293 cells stably overexpressing human GLP-1 receptor; assay type: cell-based; parameters: expressed in transfected cells; host or cells: HEK-293
In short: as §1

[2] = EC50 of human GIP / EC50 of compound
[3] = EC50 of human GCG / EC50 of compound
[4] = cAMP, at least 3 independent tests, read-out: EC50 on RIN-m5F rat pancreatic islet tumor cells
[5] = read-out: EC50 on mouse 3T3-L1 adipocyte, cAMP, at least 3 independent tests
[6] = cAMP, at least 3 independent tests, read-out: EC50 on human primary liver cells
[7] = EC50 of human GLP-1 (7-37) / EC50 of compound

| Compound | Human GIP R Rel. A (Relative Activity) (Human GIP R; [2]) [%] | Human GCG R Rel. A (Relative Activity) (Human GCG R; [3]) [%] | EC50 (RIN-m5F cells; [4]) [nM] | Rel. A (Relative Activity) on RIN-m5F (RIN-m5F cells; relative to GLP-1(7-37)) [%] | EC50 (3T3-L1 adipocytes; [5]) [nM] | Rel. A (Relative Activity) on 3T3-L1 adipocyte (3T3-L1 adipocytes) [%] | EC50 [1, 6] [nM] | Rel. A (Relative Activity) on human primary liver cells [1] [%] | EC50 (Human GLP-1R) [nM] | Human GLP-1R Rel. A (Relative Activity) (Human GLP-1R; [7]) [%] | EC50 (Human GIP R) [nM] | also measured |
| --- | --- | --- | --- | --- | --- | --- | --- | --- | --- | --- | --- | --- |
| CC[C@H](C)[C@H](NC(=O)[C@H](Cc1ccccc1)NC(=O)[C@H](C)NC(=O)C(C)(C)NC(=O)[C@H](CCC(N)=O)NC(=O)[C@H](C)NC(=O)[C@H](CCCCNC(=O)COCCOCCNC(=O)COCCOCCNC(=O)CC[C@H](NC(=O)CCCCCCCCCCCCCCCCCCC(=O)O)C(=O)O)NC(=O)[C@H](CCCCN)NC(=O)[C@H](CC(=O)O)NC(=O)[C@H](CC(C)C)NC(=O)[C@H](Cc1ccccc1)NC(=O)[C@@H](NC(=O)[C@H](CO)NC(=O)[C@H](Cc1ccc(O)cc1)NC(=O)[C@H](CC(=O)O)NC(=O)[C@H](CO)NC(=O)[C@@H](NC(=O)[C@](C)(Cc1ccccc1F)NC(=O)[C@@H](NC(=O)CNC(=O)[C@H](CCC(N)=O)NC(=O)C(C)(C)NC(=O)[C@@H](N)Cc1ccc(O)cc1)[C@@H](C)O)[C@@H](C)O)[C@@H](C)CC)C(=O)N[C@@H](CCC(=O)O)C(=O)N[C@@H](Cc1ccccc1)C(=O)N[C@@H](CC(C)C)C(=O)N[C@@H](CC(C)C)C(=O)N[C@@H](CCC(=O)O)C(=O)N[C@H](C(=O)NCC(=O)N1CCC[C@H]1C(=O)N[C@@H](CO)C(=O)N[C@@H](CO)C(=O)NCC(=O)N[C@@H](C)C(=O)N1CCC[C@H]1C(=O)N1CCC[C@H]1C(=O)NC1(C(=O)N[C@@H](CO)C(N)=O)CC1)[C@@H](C)O [Compound 9] | 385.11 | 91.94 | 0.322 | 320.50 | 19.8 | 19.25 | 3.98 | 97.86 | 0.017 | 258.82 | – | Weight change (C57 BL/6J DIO mice; 3 nmol/kg s.c. Q3D for 15 days): −17.6 ± 1.51%; Weight change (C57 BL/6J DIO mice; 10 nmol/kg s.c. Q3D for 15 days): −21.5 ± 1.02%; Weight change (C57 BL/6J DIO mice; 30 nmol/kg s.c. Q3D for 15 days): −35.4 ± 3.61%; LDL-C (C57 BL/6J DIO mice; 3 nmol/kg, Day 15): 0.59 ± 0.024 mM; TC (total cholesterol) (C57 BL/6J DIO mice; 3 nmol/kg, Day 15): 4.00 ± 0.179 mM; TG (plasma triglycerides) (C57 BL/6J DIO mice; 3 nmol/kg, Day 15): 0.92 ± 0.063 mM; LDL-C (C57 BL/6J DIO mice; 30 nmol/kg, Day 15): 0.51 ± 0.028 mM; TC (total cholesterol) (C57 BL/6J DIO mice; 30 nmol/kg, Day 15): 2.72 ± 0.106 mM; TG (plasma triglycerides) (C57 BL/6J DIO mice; 30 nmol/kg, Day 15): 0.70 ± 0.023 mM; Blood sugar (fasting blood glucose) (C57 BL/6J DIO mice; Table 8-1, 3 nmol/kg, Day 15): 97.9 ± 4.07 mg/dL; Insulin (blood) (C57 BL/6J DIO mice; Table 8-1, 3 nmol/kg, Day 15): 25.2 ± 6.14 mIU/L |
| CC[C@H](C)[C@H](NC(=O)[C@H](Cc1ccccc1)NC(=O)[C@H](C)NC(=O)C(C)(C)NC(=O)[C@H](CCC(N)=O)NC(=O)[C@H](C)NC(=O)[C@H](CCCCNC(=O)COCCOCCNC(=O)COCCOCCNC(=O)CC[C@H](NC(=O)CCCCCCCCCCCCCCCCCCC(=O)O)C(=O)O)NC(=O)[C@H](CCCCN)NC(=O)[C@H](CC(=O)O)NC(=O)[C@H](CC(C)C)NC(=O)[C@](C)(CC(C)C)NC(=O)[C@@H](NC(=O)[C@H](CO)NC(=O)[C@H](Cc1ccc(O)cc1)NC(=O)[C@H](CC(=O)O)NC(=O)[C@H](CO)NC(=O)[C@@H](NC(=O)[C@](C)(Cc1ccccc1F)NC(=O)[C@@H](NC(=O)CNC(=O)[C@H](CCC(N)=O)NC(=O)C(C)(C)NC(=O)[C@@H](N)Cc1ccc(O)cc1)[C@@H](C)O)[C@@H](C)O)[C@@H](C)CC)C(=O)N[C@@H](CCC(=O)O)C(=O)N[C@@H](Cc1ccccc1)C(=O)N[C@@H](CC(C)C)C(=O)N[C@@H](CC(C)C)C(=O)N[C@@H](CCC(=O)O)C(=O)N[C@H](C(=O)NCC(=O)N1CCC[C@H]1C(=O)N[C@@H](CO)C(=O)N[C@@H](CO)C(=O)NCC(=O)N[C@@H](C)C(=O)N1CCC[C@H]1C(=O)N1CCC[C@H]1C(=O)N1CCC[C@H]1C(=O)N[C@@H](CO)C(N)=O)[C@@H](C)O [Compound 19] | 2262.50 | 196.55 | 0.149 | 692.62 | 3.01 | 126.31 | 0.971 | 400.72 | 0.009 | 488.89 | 0.008 | EC50 (Human GCG R): 0.029 nM; Blood sugar (fasting blood glucose) (C57 BL/6J DIO mice; Table 8-2, 3 nmol/kg, Day 15): 142.0 ± 2.92 mg/dL; Insulin (blood) (C57 BL/6J DIO mice; Table 8-2, 3 nmol/kg, Day 15): 26.1 ± 4.77 mIU/L; Liver TG (C57 BL/6J DIO mice; Table 9-2, 3 nmol/kg, Day 15): 38.0 ± 3.37 mg |
| CC[C@H](C)[C@H](NC(=O)[C@H](Cc1ccccc1)NC(=O)[C@H](C)NC(=O)C(C)(C)NC(=O)[C@H](CCC(N)=O)NC(=O)[C@H](C)NC(=O)[C@H](CCCCNC(=O)COCCOCCNC(=O)COCCOCCNC(=O)CC[C@H](NC(=O)CCCCCCCCCCCCCCCCCCC(=O)O)C(=O)O)NC(=O)[C@H](CCCCN)NC(=O)[C@H](CC(=O)O)NC(=O)[C@H](CC(C)C)NC(=O)[C@](C)(CC(C)C)NC(=O)[C@@H](NC(=O)[C@H](CO)NC(=O)[C@H](Cc1ccc(O)cc1)NC(=O)[C@H](CC(=O)O)NC(=O)[C@H](CO)NC(=O)[C@@H](NC(=O)[C@](C)(Cc1ccccc1)NC(=O)[C@@H](NC(=O)CNC(=O)[C@H](CCC(N)=O)NC(=O)C(C)(C)NC(=O)[C@@H](N)Cc1ccc(O)cc1)[C@@H](C)O)[C@@H](C)O)[C@@H](C)CC)C(=O)N[C@@H](CCC(=O)O)C(=O)N[C@@H](Cc1ccccc1)C(=O)N[C@@H](CC(C)C)C(=O)N[C@@H](CC(C)C)C(=O)N[C@@H](CCC(=O)O)C(=O)NCC(=O)NCC(=O)N1CCC[C@H]1C(=O)N[C@@H](CO)C(=O)N[C@@H](CO)C(=O)NC(C)(C)C(=O)N[C@@H](Cc1c[nH]cn1)C(=O)N1CCC[C@H]1C(=O)N1CCC[C@H]1C(=O)N1CCC[C@H]1C(=O)N[C@@H](CO)C(N)=O [Compound 36] | – | – | – | – | – | 373.84 | – | 635.78 | – | – | 0.007 | Human GIP R Rel. A (Relative Activity) (Human GIP R): 2585.71%; Human GCG R Rel. A (Relative Activity) (Human GCG R): 126.67%; EC50 (RIN-m5F cells): 0.2 nM; Rel. A (Relative Activity) on RIN-m5F (RIN-m5F cells): 516.00%; EC50 (3T3-L1 adipocytes): 1.02 nM; EC50 [1]: 0.612 nM; Human GLP-1R Rel. A (Relative Activity) (Human GLP-1R): 176.00%; EC50 (Human GLP-1R; stable transfected cell cAMP activity, at least 3 independent tests, read-out: Human GLP-1R EC50): 0.025 nM |
